Measured values published in patent US20260048059A1, “USE OF SUBSTITUTED BENZOXAZOLE AND BENZOFURAN COMPOUNDS FOR THE TREATMENT AND PREVENTION OF DISEASES ASSOCIATED WITH CHRONIC FATIGUE, EXHAUSTION AND/OR EXERTIONAL INTOLERANC” (MITODICURE GMBH, priority 2022, published 2026).

Test system: isolated rat soleus muscle
Assay: Ex vivo isolated rat soleus muscle: residual contractile force in high KCl (12.5 mM) buffer
Settings: for Activity on residual contractile force compared with dipyridamole: in presence of salbutamol, KCl 12.5 mM buffer; for Mean residual contractile force in % (SEM in %): 30 min in KCl 12.5 mM buffer

| Compound | Activity on residual contractile force compared with dipyridamole | Mean residual contractile force in % (SEM in %) (test compound 0.3 μM in presence of salbutamol 1 μM) | Mean residual contractile force in % (SEM in %) (test compound 16.8 nM in presence of salbutamol 1 μM) |
| --- | --- | --- | --- |
| CN(C)C1CCN(C(=O)c2cc3cc(Cl)c4c(c3o2)C2(CCCCC2)NC(=O)N4)CC1 | more active than dipyridamole | 73.7 (9.6); n = 4; p < 0.05% | – |
| CN(C)C(=O)CNCc1nc2cc(Cl)c3c(c2o1)C1(CCCCC1)NC(=O)N3 | more active than dipyridamole | – | 60.5 (3.0); n = 6; p < 0.01% |
